Target: Insulin-like growth factor-binding protein 5 (Homo sapiens, UniProt P24593)
Test: Dissociation constant binding to Insulin-like growth factor binding protein 5 at the residue L-81

Sequences of proteins named here, by UniProt entry; tags and fusion partners are left off.
UniProt P24593, whole entry: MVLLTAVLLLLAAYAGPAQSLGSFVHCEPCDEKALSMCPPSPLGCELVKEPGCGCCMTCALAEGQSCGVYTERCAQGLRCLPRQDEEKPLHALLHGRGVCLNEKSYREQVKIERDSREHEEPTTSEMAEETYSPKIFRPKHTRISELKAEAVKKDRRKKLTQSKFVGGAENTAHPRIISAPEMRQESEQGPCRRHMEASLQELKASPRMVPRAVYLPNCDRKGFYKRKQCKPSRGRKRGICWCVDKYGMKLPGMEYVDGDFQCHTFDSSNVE

- Kd: 1090 µM
Compound: CC(C)C[C@@H](NC(=O)OCC1c2ccccc2-c2ccccc21)C(=O)O [N- (9-FLUORENYLMETHOXYCARBONYL)-L-LEUCINE]

— ChEMBL document CHEMBL1135598, “In silico and NMR identification of inhibitors of the IGF-I and IGF-binding protein-5 interaction” (J Med Chem, 2002)
